Antibody variant affinities, Ab-91 heavy chain, assay 2

The measurements come from Engelhart et al. 2022 (doi:10.1038/s41597-022-01779-4) through the FLAb antibody collection.

Target: peptide PDVDLGDISGINAS, taken from heptad repeat 2 (HR2) of SARS-CoV-2 spike.

Parent: Ab-91, a human scFv built as VL, a 15-residue (Gly4Ser)3 linker, VH. Only the CDRs of the heavy chain vary.
VL: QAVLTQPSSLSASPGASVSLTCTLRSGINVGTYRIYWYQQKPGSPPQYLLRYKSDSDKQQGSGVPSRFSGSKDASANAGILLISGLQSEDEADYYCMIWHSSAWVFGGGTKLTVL
VH: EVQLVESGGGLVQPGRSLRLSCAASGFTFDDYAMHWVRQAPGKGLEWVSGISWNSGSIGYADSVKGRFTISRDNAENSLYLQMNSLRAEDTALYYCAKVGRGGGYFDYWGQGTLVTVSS

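In library AAYL51, one, two or three CDR residues were substituted; doubles and triples were drawn at random. AlphaSeq pools MATa yeast showing the antibodies with MATalpha yeast showing the peptide. The frequency of each diploid, read from paired DNA barcodes, reflects how well the two displayed proteins bind. Scores were corrected for input abundance and mapped to Kd with protein pairs of known affinity run in the same pool. Each pool was mated in three replicate cultures.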

The parent's heavy chain CDRs are GFTFDDYAMH, GISWNSGSIGYADSVK, VGRGGGYFDY; each variant's own CDRs replace them letter for letter.
Numbers give log10(Kd / nM), so 0 is 1 nM and 3 is 1 µM. Smaller is tighter.
Replicates are averaged; those with no signal do not enter the mean.
An entry "n.d." has no value in the source: the pair was not observed among the diploids in that replicate. This suggests poor binding but is not conclusive.
Order: sorted from the lowest average up, undetected variants last.
As a blank, each scFv also met three strains without target: over library AAYL51, 21% of these pairings were detected, typically at 4.54 and seldom below 3.26.
In this assay the parent's reference entry averaged 1.86; its copy inside this library read 0.88.

| CDR-H1 | CDR-H2 | CDR-H3 | log10 Kd, replicates | log10 Kd (nM), mean |
|---|---|---|---|---|
| GFTFMDYAMH | GISWNSGSIGYADSVN | VQRGGGYFDY | 1.12 / 0.99 / 0.43 | 0.84 |
| GFTFDDYAMH | GISWNSCSHGMADSVK | VGRGGGYFDY | n.d. / n.d. / 1.18 | 1.18 |
| GFTFSDYAMH | GISWNSGSDGYAWSVK | VGRGGGYFDY | 1.48 / 1.65 / 1.18 | 1.44 |
| GFTFEDMAMH | GISWNSGSIGYADSVK | VGRGGGYFDY | 1.67 / 1.85 / 1.10 | 1.54 |
| GFTFDDAAMI | GISWNSGSIMYADSVK | VGRGGGYFDY | 3.59 / n.d. / n.d. | 3.59 |
| GFTFDDYAMH | GISWNSTSIGYVDSVK | VGRGGGCFDY | 3.62 / n.d. / n.d. | 3.62 |
| GFAFDFYAMH | GISWNSGSILYADSVK | VGRGGGYFDY | 3.19 / n.d. / 4.21 | 3.70 |
| GGTFDDYAML | GISWNSGSIGYADSVK | VGRGPGYFDY | 4.14 / 3.91 / n.d. | 4.03 |
| GFTFDDYAMH | GYSWNSGEIGYADRVK | VGRGGGYFDY | 4.05 / n.d. / n.d. | 4.05 |
| GFTFDDYQVH | GISWNSGSIGYANSVK | VGRGGGYFDY | n.d. / 4.08 / n.d. | 4.08 |
| RFTFDDYAYH | GISWNSGSIGYADSVK | VGRGGGYFVY | 3.60 / n.d. / 4.85 | 4.23 |
| GFTFDDYAMH | GIGWQSGSIGYADSVK | VGRGEGYFDY | n.d. / 4.29 / n.d. | 4.29 |
| GFTFDDYAMT | GIWWNSGSIGYADSVK | VGRGGGYFDT | 5.82 / 3.70 / n.d. | 4.76 |
| FWTFDDYAMH | GISWNSGSIGYADSVK | VGRGGGYFCY | n.d. / 5.02 / 4.61 | 4.82 |
| GFTFDDYAMH | GISWNSGHIGYYDSVK | VGRGMGYFDY | n.d. / 4.83 / n.d. | 4.83 |
| GFTGDDYAMH | GISWNSGSIGYFDSVK | VGRGGWYFDY | 4.91 / n.d. / n.d. | 4.91 |
| GFTFDDYAMH | GESWNSNSIGYADSVK | VGLGGGYFDY | 5.02 / 4.69 / 5.14 | 4.95 |
| GFTFDDYAMH | GISKNSGSIGYADSRK | VGRGGGYNDY | 4.33 / 4.94 / 5.58 | 4.95 |
| GTTFDDYALH | GISWNSGSIGYADSVK | VARGGGYFDY | n.d. / 4.96 / n.d. | 4.96 |
| GFTFDDYHMH | GESWNSGSIGYADSVK | VGRGMGYFDY | 5.02 / n.d. / n.d. | 5.02 |
| GFTFDDYAMH | GISWNSESIGYADVVK | VGRGGCYFDY | 4.10 / 6.13 / 4.94 | 5.05 |
| GATFDDYAMH | GIAWNSGSIGYADSVK | VGKGGGYFDY | 6.15 / 4.02 / 5.15 | 5.10 |

Further variants, results first:

| log10 Kd, replicates | log10 Kd (nM), mean | CDR-H1 | CDR-H2 | CDR-H3 |
|---|---|---|---|---|
| 5.18 / 5.03 / n.d. | 5.11 | GFTFDDYAMH | NISWNSGSIGYADSVK | VGRGGGDFEY |
| 4.61 / 6.16 / 5.50 | 5.42 | GFTFDDYAMH | GISWNSGPIGYAPSVK | VGRGGGIFDY |
| 4.88 / 6.11 / 5.33 | 5.44 | GFTFYDYAMH | GISWNVGSIGYADSVK | VGRGGGYFDY |
| n.d. / 5.58 / n.d. | 5.58 | GFTFDDYAMH | GQSWNSPSIGYKDSVK | VGRGGGYFDY |
| 6.62 / 5.65 / n.d. | 6.13 | GFTFDDYAMH | GTSWNSGSIGVADSVK | VVRGGGYFDY |
| n.d. / n.d. / n.d. | n.d. | GFQFDDYAMH | GMSWPSGSIGYADSVK | VGRGGGYFDY |
| n.d. / n.d. / n.d. | n.d. | GMTYDDYAMH | GISWNSGEIGYADSVK | VGRGGGYFDY |
| n.d. / n.d. / n.d. | n.d. | GPTFDDYAMH | GISWNSGSIGYADSVA | VGRGGGYFVY |
| n.d. / n.d. / n.d. | n.d. | GPTFDDYAMH | GISWNSGSIGYADSVK | VGRGGGYFDD |
| n.d. / n.d. / n.d. | n.d. | IFTFDDYAMH | GISWNSGSIGYADSVK | WGRGGGPFDY |
| n.d. / n.d. / n.d. | n.d. | GFHFDDYAMH | GISWNSGSIGYADSVF | QGRGGGYFDY |
| n.d. / n.d. / n.d. | n.d. | GFHFDDYAMH | GISWNSGSIGYADSVF | VGRGRGYFDY |
| n.d. / n.d. / n.d. | n.d. | GFTFDDYAMH | GISWVSGSIGYADIVK | VGRGDGYFDY |
| n.d. / n.d. / n.d. | n.d. | GFTFDDYAMH | GISWNSGSIFYADSVK | VGRKGGYFDF |
| n.d. / n.d. / n.d. | n.d. | GFTDDDYAMH | GISWNSGSIGYADSVK | VGRGGGYVDY |
| n.d. / n.d. / n.d. | n.d. | GFTFDYYAMH | GISWNSGSIGYADSVK | VGRGGGIFQY |
| n.d. / n.d. / n.d. | n.d. | GFTFDDYAMH | DISWNSGSIGYTDSVA | VGRGGGYFDY |
| n.d. / n.d. / n.d. | n.d. | GITFDQYAMH | GISWNIGSIGYADSVK | VGRGGGYFDY |
| n.d. / n.d. / n.d. | n.d. | GLTFDDYAMH | GISWNMGSIGLADSVK | VGRGGGYFDY |
| n.d. / n.d. / n.d. | n.d. | GFTFLDDAMH | GISWNSGSIGYADSVK | VGRGGEYFDY |
| n.d. / n.d. / n.d. | n.d. | GFYFDDYAMH | GISWNSGSIGYADSKK | VGRGGGRFDY |
| n.d. / n.d. / n.d. | n.d. | GFTFDDYAVH | GISWNSGPIGYADSVK | VGRGGGYFSY |

The closing 3 entries, repeated:

CDR-H1,CDR-H2,CDR-H3,"log10 Kd, replicates","log10 Kd (nM), mean"
GFTFLDDAMH,GISWNSGSIGYADSVK,VGRGGEYFDY,n.d. / n.d. / n.d.,n.d.
GFYFDDYAMH,GISWNSGSIGYADSKK,VGRGGGRFDY,n.d. / n.d. / n.d.,n.d.
GFTFDDYAVH,GISWNSGPIGYADSVK,VGRGGGYFSY,n.d. / n.d. / n.d.,n.d.